# Source: ChEMBL document CHEMBL1158437, “The discovery of the potent aurora inhibitor MK-0457 (VX-680)” (Bioorg Med Chem Lett, 2009)
# Protein sequences, listed by entry. Tags and fused reporters are not part of them. Lines headed by an entry give the natural chain unless they say otherwise; changes in a name come on top.
# UniProt P49841: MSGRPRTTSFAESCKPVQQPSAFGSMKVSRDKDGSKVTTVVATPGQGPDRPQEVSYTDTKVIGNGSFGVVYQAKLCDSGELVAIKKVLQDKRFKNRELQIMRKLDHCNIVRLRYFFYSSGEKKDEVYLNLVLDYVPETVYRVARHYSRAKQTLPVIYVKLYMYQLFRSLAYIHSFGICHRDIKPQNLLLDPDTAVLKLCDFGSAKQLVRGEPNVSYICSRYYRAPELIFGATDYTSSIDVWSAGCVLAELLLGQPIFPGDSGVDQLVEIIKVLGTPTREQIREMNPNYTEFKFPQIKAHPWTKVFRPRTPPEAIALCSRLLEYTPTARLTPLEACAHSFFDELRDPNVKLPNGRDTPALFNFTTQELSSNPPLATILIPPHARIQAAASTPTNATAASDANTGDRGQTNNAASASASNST
# UniProt P12931: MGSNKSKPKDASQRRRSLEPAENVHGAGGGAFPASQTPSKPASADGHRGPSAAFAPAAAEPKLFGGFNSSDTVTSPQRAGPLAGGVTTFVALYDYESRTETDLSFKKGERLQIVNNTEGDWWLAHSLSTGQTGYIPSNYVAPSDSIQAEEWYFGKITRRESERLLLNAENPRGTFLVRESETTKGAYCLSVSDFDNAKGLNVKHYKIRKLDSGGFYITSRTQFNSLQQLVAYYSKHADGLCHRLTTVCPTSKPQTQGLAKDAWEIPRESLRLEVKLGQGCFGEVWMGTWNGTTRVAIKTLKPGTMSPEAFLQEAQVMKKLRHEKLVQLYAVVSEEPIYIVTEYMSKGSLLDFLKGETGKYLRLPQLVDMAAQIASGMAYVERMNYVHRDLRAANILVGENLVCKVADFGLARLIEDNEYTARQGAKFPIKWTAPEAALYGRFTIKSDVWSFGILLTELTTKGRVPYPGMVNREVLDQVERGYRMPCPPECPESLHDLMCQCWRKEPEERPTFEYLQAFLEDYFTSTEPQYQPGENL
# How the values were obtained:
# [1] = biological target: Glycogen synthase kinase-3 beta (Homo sapiens, UniProt P49841)
# Aurora kinase A = biological target: T1, Aurora kinase A (Homo sapiens, UniProt O14965)
# T1 sequence (O14965 whole entry): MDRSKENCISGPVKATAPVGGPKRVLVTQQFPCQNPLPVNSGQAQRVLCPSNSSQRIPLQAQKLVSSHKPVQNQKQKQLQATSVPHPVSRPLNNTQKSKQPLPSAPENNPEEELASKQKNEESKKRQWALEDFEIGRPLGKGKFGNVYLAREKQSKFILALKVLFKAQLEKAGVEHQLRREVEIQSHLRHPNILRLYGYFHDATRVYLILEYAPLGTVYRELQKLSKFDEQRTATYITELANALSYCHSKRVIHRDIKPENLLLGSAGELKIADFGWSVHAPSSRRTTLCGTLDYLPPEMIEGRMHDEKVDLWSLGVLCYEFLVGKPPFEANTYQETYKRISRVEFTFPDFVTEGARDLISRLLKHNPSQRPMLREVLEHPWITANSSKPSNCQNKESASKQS
# [2] = biological target: Proto-oncogene tyrosine-protein kinase Src (Homo sapiens, UniProt P12931); assay: Inhibition of Src
Structure (SMILES),Ki [1],Ki (Aurora kinase A),Ki [2]
Cc1cc(Nc2nc(Sc3ccc(Cl)cc3)nc3ccccc23)n[nH]1,44 nM,6 nM,
Cc1cc(Nc2nc(Sc3ccccc3Cl)nc3ccccc23)n[nH]1,126 nM,5 nM,
Cc1cc(Nc2nc(Oc3ccccc3)nc3ccccc23)n[nH]1,51 nM,36 nM,1290 nM
Cc1cc(Nc2nc(Sc3c(Cl)cccc3Cl)nc3ccccc23)n[nH]1,113 nM,5 nM,
CC(=O)Nc1ccc(Sc2nc(Nc3cc(C4CC4)[nH]n3)c3ccccc3n2)cc1,338 nM,< 1 nM,1740 nM
CCC(=O)Nc1ccc(Sc2nc(Nc3cc(C)[nH]n3)c3ccccc3n2)cc1,1500 nM,1 nM,720 nM
Cc1cc(Nc2nc(Sc3cccc(Cl)c3Cl)nc3ccccc23)n[nH]1,48 nM,3 nM,
Cc1cc(Nc2nc(Sc3cccc(Cl)c3)nc3ccccc23)n[nH]1,33 nM,4 nM,
COc1ccc(Sc2nc(Nc3cc(C)[nH]n3)c3ccccc3n2)cc1OC,1170 nM,17 nM,2180 nM
Cc1cc(Nc2nc(Sc3ccccc3)nc3ccccc23)n[nH]1,171 nM,20 nM,800 nM
COc1ccccc1Sc1nc(Nc2cc(C)[nH]n2)c2ccccc2n1,216 nM,24 nM,
Cc1cc(Nc2nc(Nc3ccccc3)nc3ccccc23)n[nH]1,24 nM,24 nM,393 nM
Cc1cc(Nc2nc(Sc3ccc(NC(=O)C4CC4)cc3)nc3ccccc23)n[nH]1,1310 nM,< 1 nM,
COc1ccc(Sc2nc(Nc3cc(C)[nH]n3)c3ccccc3n2)cc1,124 nM,9 nM,
Cc1cc(Nc2nc(Sc3ccc(NC(=O)OC(C)(C)C)cc3)nc3ccccc23)n[nH]1,,9 nM,
Cc1cc(Nc2nc(Sc3ccc(NS(C)(=O)=O)cc3)nc3ccccc23)[nH]n1,,,681 nM
Cc1cc(Nc2nc(Sc3ccc4ccccc4c3)nc3ccccc23)n[nH]1,,1 nM,
Cc1cc(Nc2nc(Sc3ccc(Cl)c(Cl)c3)nc3ccccc23)n[nH]1,> 15 nM,2 nM,
CC(=O)Nc1ccc(Sc2nc(Nc3cc[nH]n3)c3ccccc3n2)cc1,605 nM,24 nM,277 nM
Cc1cc(Nc2nc(Sc3ccc(Cl)cc3Cl)nc3ccccc23)n[nH]1,8 nM,2 nM,
Cc1cc(Nc2nc(N(C)c3ccccc3)nc3ccccc23)n[nH]1,312 nM,17 nM,1060 nM
